Experimental data reported in PubChem BioAssay (NCI).
Values joined by “and” are separate entries in the source; they are usually repeats but may differ in a detail not shown here. Equal entries are not always repeated. Only a part is listed here, and it is no random draw. Some of these compounds have results that are not shown, active ones among them.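 In brief: 96-well plates, 48 h treatment, single concentration, percent growth endpoint.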 Active and inactive are the calls of the source. Rule for the calls: active = growth percent below 10; inactive = the rest.

Legend:
Assay in all cases: NCI-60 one-dose screen, 48 h (100 = growth as untreated, 0 = no growth, -100 = all killed)
Conditions in all cases: 10 µM
[1] = system: NCI-H23 lung
[2] = system: NCI-H226 lung
[3] = system: HOP-62 NSCLC
[4] = system: NCI-H460 lung
[5] = system: 786-0 renal
[6] = system: COLO 205 colon
[7] = system: NCI-H322M lung
[8] = system: HOP-92 NSCLC
[9] = system: NCI-H522 lung
[10] = system: A549/ATCC NSCLC

Measured: growth

O=C(OCCN1CCCC1)C(O)(c1ccccc1)c1ccccc1
inactive: [1] 105% | [2] 109% | [3] 96% | [4] 110% | [5] 106% | [6] 105%

ClCCN(CCCl)Cc1cc(Cl)cc(Cl)c1
inactive: [1] 74.2% | [2] 87.2% | [7] 85.8% | [3] 63.1% | [4] 24.2% | [8] 59.8% | [9] 65.2% | [10] 71.4% | [5] 71% | [6] 80.3%

Fc1cccc(CN(CCCl)CCCl)c1
inactive: [1] 98.5% | [2] 108% | [7] 108% | [3] 97.5% | [4] 66.6% | [8] 77.9% | [9] 79% | [10] 89.4% | [5] 97.9% | [6] 91%

CC(=O)CI
inactive: [1] 104% | [2] 96.2% | [7] 107% | [3] 106% | [4] 109% | [8] 128% | [9] 100% | [10] 101% | [5] 104% | [6] 112%

COc1ccc(N=C=S)cc1CN(CCCl)CCCl
inactive: [1] 66.5% | [2] 71.2% | [7] 99.8% | [3] 54.9% | [4] 29.1% | [8] 67.1% | [9] 30.2% | [10] 65.7% | [5] 55.4% | [6] 61.5%

BrCCN(CCBr)Cc1ccccc1
inactive: [1] 104% | [2] 105% | [7] 112% | [3] 109% | [4] 101% | [8] 86.8% | [9] 96.7% | [10] 113% | [5] 113% | [6] 117%

N#CC(C#N)=Cc1ccc(Br)cc1
inactive: [1] 101% and 99.5% | [2] 99.7% and 96% | [7] 107% and 100% | [3] 108% | [4] 106% and 108% | [8] 109% and 97.6% | [9] 93.2% and 96.7% | [10] 105% and 101% | [5] 105% | [6] 112% and 111%

CN(C)CCOC(=O)C(O)(c1ccccc1)c1ccccc1
inactive: [1] 110% | [2] 108% | [7] 88% | [3] 89.2% | [4] 116% | [8] 89.2% | [9] 119% | [10] 106% | [5] 115% | [6] 122%

ClCCN(CCCl)Cc1ccsc1Br
inactive: [1] 94.1% | [2] 93.2% | [7] 106% | [3] 92.1% | [4] 37.9% | [8] 84.2% | [9] 99.7% | [10] 81.1% | [5] 105%

CC[N+](C)(C)Cc1cccc(Cc2ccccc2)c1OC(=O)N(C)C
inactive: [1] 98.6% | [2] 97.1% | [7] 92.2% | [3] 100% | [4] 108% | [8] 102% | [9] 102% | [10] 97.1% | [5] 99.1% | [6] 107%

COCc1c(CN(CCCl)CCCl)cnc(C)c1O
inactive: [1] 102% | [2] 87.1% | [7] 105% | [4] 96.6% | [8] 84.3% | [9] 99.5% | [10] 112% | [5] 105% | [6] 103%

CN(CCBr)CCBr
inactive: [1] 105% | [2] 103% | [7] 101% | [3] 108% | [4] 77.6% | [8] 69.6% | [9] 76.9% | [10] 89.6% | [5] 98.4% | [6] 87.3%

ClCCN(CCCl)C1CCCCC1
inactive: [1] 101% | [2] 82.5% | [7] 93.2% | [3] 107% | [4] 91.4% | [8] 101% | [9] 94.8% | [10] 93.5% | [5] 105% | [6] 112%

N#CC(C#N)=Cc1ccccc1Cl
inactive: [1] 98.7% | [2] 95.9% | [7] 103% | [4] 114% | [8] 113% | [9] 114% | [10] 104% | [5] 101% | [6] 112%

ClCCCCCC(CCl)NCCCl (stereo not given)
inactive: [1] 71% | [2] 86% | [7] 96.8% | [4] 39.3% | [8] 90.7% | [9] 94.9% | [10] 66.8% | [5] 88.5% | [6] 96.7%

CC(C)(C)N(CCCl)CCCl
inactive: [1] 105% | [2] 97.8% | [7] 107% | [3] 112% | [4] 104% | [8] 89.5% | [9] 82.8% | [10] 94.3% | [5] 102% | [6] 108%

N#CC(C#N)=Cc1cccc(Br)c1
inactive: [1] 104% | [2] 97.5% | [7] 113% | [3] 102% | [4] 102% | [8] 86% | [9] 90.6% | [10] 101% | [5] 99.4% | [6] 113%

ClCCN(CCCl)C1c2ccccc2-c2ccccc21
inactive: [1] 93.2% | [2] 89.1% | [7] 85.1% | [3] 89.4% | [4] 77.2% | [8] 85.1% | [9] 44.3% | [10] 80.9% | [5] 93.7% | [6] 87.2%

CCCN(CCCl)CCCl
inactive: [1] 120% | [2] 98.7% | [7] 105% | [3] 102% | [4] 102% | [8] 93.6% | [9] 86.1% | [10] 97.3% | [5] 108% | [6] 103%

CCNCCCl
inactive: [1] 115% | [2] 113% | [7] 106% | [3] 113% | [4] 107% | [10] 104% | [5] 111% | [6] 109%

Cc1cc2nc(CN(CCCl)CCCl)[nH]c2cc1C
inactive: [1] 78.6% | [2] 76.7% | [7] 121% | [3] 79% | [4] 43.7% | [8] 58.2% | [9] 75.1% | [10] 84.8% | [5] 81.5% | [6] 83.3%

ClCCN(CCCl)Cc1ccc(Cl)c(Cl)c1
inactive: [1] 95.2% | [2] 102% | [7] 97.1% | [3] 110% | [4] 114% | [8] 97% | [9] 93.2% | [10] 99.6% | [5] 98.5% | [6] 113%

CCOc1ccc([N+](=O)[O-])cc1CN(CCCl)CCCl
inactive: [1] 93.2% | [2] 99.4% | [7] 98.7% | [3] 108% | [4] 105% | [8] 87.2% | [9] 72.7% | [10] 96.3% | [5] 89.9% | [6] 108%

COc1ccc([N+](=O)[O-])cc1CN(CCCl)CCCl
inactive: [1] 104% | [2] 94.5% | [7] 102% | [3] 113% | [4] 86.5% | [8] 109% | [9] 90.8% | [10] 88.1% | [5] 101% | [6] 98.4%
